We go through 2 compounds from article PMC3843973 (Journal of medicinal chemistry, 2013).

Sequences of proteins named here, by UniProt entry; tags and fusion partners are left off. Residues count along the entry.
UniProt P04757, 26-499: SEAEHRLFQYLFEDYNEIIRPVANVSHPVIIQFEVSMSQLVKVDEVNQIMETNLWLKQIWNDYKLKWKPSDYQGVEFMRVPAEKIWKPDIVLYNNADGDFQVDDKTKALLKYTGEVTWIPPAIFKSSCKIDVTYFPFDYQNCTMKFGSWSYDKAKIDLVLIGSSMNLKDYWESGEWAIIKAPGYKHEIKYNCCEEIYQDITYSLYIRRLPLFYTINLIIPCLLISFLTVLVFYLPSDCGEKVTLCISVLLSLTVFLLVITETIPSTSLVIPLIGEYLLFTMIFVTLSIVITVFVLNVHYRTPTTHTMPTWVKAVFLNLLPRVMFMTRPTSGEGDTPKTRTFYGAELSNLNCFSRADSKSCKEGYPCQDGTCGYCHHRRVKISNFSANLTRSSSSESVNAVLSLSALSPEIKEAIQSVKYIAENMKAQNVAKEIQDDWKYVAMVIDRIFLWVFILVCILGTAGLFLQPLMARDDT
UniProt P12392, 21-495: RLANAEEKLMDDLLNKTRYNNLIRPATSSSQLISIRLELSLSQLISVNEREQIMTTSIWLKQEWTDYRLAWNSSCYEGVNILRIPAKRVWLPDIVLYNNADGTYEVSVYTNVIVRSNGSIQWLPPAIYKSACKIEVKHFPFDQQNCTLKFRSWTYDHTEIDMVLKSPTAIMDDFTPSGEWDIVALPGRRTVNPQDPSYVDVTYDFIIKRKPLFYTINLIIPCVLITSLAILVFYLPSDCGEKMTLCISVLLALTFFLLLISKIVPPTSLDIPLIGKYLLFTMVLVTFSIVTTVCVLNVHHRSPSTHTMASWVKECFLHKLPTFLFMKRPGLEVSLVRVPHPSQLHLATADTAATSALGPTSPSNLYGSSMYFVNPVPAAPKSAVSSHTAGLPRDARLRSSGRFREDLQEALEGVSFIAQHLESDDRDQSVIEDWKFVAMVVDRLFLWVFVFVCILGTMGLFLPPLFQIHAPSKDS
UniProt P17787, 26-502: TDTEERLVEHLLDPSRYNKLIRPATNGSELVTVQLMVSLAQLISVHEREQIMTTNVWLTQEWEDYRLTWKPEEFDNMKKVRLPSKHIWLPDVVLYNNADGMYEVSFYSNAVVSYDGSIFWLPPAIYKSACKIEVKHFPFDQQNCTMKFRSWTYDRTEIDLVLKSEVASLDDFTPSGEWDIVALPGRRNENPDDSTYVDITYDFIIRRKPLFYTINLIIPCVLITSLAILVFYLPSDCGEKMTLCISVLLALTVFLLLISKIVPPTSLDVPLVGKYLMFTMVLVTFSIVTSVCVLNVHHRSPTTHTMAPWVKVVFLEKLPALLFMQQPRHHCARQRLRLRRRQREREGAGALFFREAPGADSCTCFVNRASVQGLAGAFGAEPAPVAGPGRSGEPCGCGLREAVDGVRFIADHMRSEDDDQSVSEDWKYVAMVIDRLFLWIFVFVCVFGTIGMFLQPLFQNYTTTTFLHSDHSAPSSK
UniProt P43681, 29-627 limits assumed: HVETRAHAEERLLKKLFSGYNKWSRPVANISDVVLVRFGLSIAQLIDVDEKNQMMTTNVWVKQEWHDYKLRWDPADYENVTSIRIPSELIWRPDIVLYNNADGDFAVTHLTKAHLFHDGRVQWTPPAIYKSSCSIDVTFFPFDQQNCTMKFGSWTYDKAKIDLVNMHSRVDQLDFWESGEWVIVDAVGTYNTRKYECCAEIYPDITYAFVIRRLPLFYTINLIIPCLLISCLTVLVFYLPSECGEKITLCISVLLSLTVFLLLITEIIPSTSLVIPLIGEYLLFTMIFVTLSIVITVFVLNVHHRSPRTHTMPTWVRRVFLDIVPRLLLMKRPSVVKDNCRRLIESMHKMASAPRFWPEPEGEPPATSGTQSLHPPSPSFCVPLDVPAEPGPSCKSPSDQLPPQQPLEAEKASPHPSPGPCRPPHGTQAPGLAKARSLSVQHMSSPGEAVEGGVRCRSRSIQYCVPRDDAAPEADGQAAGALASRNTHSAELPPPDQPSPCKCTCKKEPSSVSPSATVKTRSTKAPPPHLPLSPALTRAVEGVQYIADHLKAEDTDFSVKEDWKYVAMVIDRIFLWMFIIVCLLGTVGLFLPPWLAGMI

One assay addresses rat α3β4 nAChR (Rattus norvegicus, UniProt P04757+P12392). Description: biochemical. The following applies: read-out: Ki α3β4.
A further assay deals with human α4β2-nAChRs (Homo sapiens, UniProt P17787+P43681).

Turning to `COCC[C@H]1C[C@@H]1c1cncc(OC[C@@H]2CCCN2)c1.O=C(O)C(F)(F)F` [Compound 24, 3-[(2(S)-Pyrrolidinyl)methoxy]-5-[(1S,2R)-2-(2-methoxyethyl)cyclopropyl]pyridine Trifluoroacetate], the inhibition at 10 µM at rat α3β4 nAChR is below 50%. Turning to `CN1CCC[C@H]1c1cccnc1` [nicotine, reference compound], the “Agonism α4β2 Efficacy at HS” value on human α4β2-nAChRs was 125 ± 10%.
